Experimental data from ChEMBL document CHEMBL4742400, “Protein kinase mkk4 inhibitors for promoting liver regeneration or reducing or preventing hepatocyte death” (2019).

How the values were obtained:
Homo sapiens [1] = species on record: Homo sapiens; test: (§1) Selectivity index, ratio of inhibition of full length human MKK7 (M1 to R419 residues) expressed in mammalian expression system assessed as residual percent of control binding at 100 nM relative to control to inhibition of partial length human MKK4 (S84 to D399 residues) expressed in mammalian expression system assessed as residual percent of control binding at 100 nM relative to control
Homo sapiens [2] = species on record: Homo sapiens; test: Selectivity index, ratio of inhibition of B-raf (unknown origin) to inhibition of partial length human MKK4 (S84 to D399 residues) expressed in mammalian expression system assessed as residual percent of control binding at 100 nM relative to control
Homo sapiens [3] = species on record: Homo sapiens; test: as §1, with “JNK1” for “MKK7”, “Q384” for “R419”

Selectivity ratio (Homo sapiens [1])	Selectivity ratio (Homo sapiens [2])	Selectivity ratio (Homo sapiens [3])	SMILES
< 3	< 3	< 3	CCCS(=O)(=O)Nc1ccc(F)c(C(=O)Nc2n[nH]c3ncc(-c4ccc(Cl)cc4)cc23)c1F
< 3	< 3	< 3	CCCS(=O)(=O)Nc1ccc(F)c(C(O)c2n[nH]c3ncc(-c4ccc(Cl)cc4)cc23)c1F (stereo unspecified)
